In patent US12458674B2, “M13 phage based gene therapy platform” (Massachusetts Institute of Technology, priority 2021, dated 2025):
Read-outs that look alike come from different tables or passages of the source.

Key:
in vivo = conditions: NCR-NU, mouse
[1] = as reported; cited from earlier work

CC1(C)C(/C=C/C=C/C=C/C=C2\N(CCCCS(=O)(=O)O)c3ccc4ccccc4c3C2(C)C)=[N+](CCCCS(=O)(=O)[O-])c2ccc3ccccc3c21 [free, indocyanine green] gave a half-life (in vivo) of 4.83 min, a t1 (exponential decay fit y = A1*exp(−x/t1) + y0 of normalized vasculature signal intensity over time, one fit per mouse, value ± error, no unit in table (text b239: minutes)) of 6.97 ± 0.54 and a t1 (second t1 column of Table A2-1, same constant without error) of 6.97. For the same molecule, the “half-life of free ICG dye” value [1] was 3 to 4 min.
